The chains behind the UniProt entries cited, without tags or fusion partners. Residues count along the entry.
UniProt O15294, 382-1046: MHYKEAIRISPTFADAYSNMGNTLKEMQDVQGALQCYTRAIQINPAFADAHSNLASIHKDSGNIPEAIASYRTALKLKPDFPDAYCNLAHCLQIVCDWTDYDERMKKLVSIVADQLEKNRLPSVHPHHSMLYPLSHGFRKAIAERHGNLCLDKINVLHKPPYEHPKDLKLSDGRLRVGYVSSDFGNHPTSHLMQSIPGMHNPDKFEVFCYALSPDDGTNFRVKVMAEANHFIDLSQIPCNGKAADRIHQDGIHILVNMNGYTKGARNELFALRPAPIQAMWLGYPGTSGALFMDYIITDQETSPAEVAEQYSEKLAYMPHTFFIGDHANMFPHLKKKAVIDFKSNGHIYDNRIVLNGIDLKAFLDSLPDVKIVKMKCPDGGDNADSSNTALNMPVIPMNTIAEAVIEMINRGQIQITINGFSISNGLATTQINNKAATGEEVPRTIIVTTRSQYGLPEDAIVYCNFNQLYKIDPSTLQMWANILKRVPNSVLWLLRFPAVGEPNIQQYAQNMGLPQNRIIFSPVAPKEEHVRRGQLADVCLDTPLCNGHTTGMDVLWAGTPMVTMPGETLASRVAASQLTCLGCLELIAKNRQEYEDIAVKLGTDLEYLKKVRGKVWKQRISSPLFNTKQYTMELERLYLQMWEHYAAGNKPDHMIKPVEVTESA

In US8993718B2, “Methods and compositions for detecting and modulating O-glycosylation” (President and Fellows of Harvard College, priority 2007, dated 2015):

Target: sOGT (Homo sapiens, UniProt O15294)
Test: Radiometric secondary assay (hit validation, UDP-14C-GlcNAc, CK23K polypeptide)
Settings: 250 μM CK23K polypeptide, 6.25 μM UDP-14C-GlcNAc, eight point curve
Method: To validate the hits from the high throughput screen, a radiometric secondary assay was used (adapted from that described in described in PCT Application PCT/US2007/008806, which was filed Apr. 11, 2007). […] The CK23K polypeptide concentration was set at 250 μM, which is roughly 1.1× the Km value. The logic behind this was to mimic as much as possible the sub-Kn, FRET-peptide concentration present in the primary assay, so that polypeptide competitive inhibitors would not be swamped out by the higher CK23K concentrations used to screen the donor displacement assay. In addition, the buffer used in high throughput screening, which had no NaCl and contains detergents, was used in secondary screening. […] A relationship existed between hit potency in the primary and secondary assay (FIG. 8), though there seemed to be a group of structurally unrelated weak validated inhibitors (IC50 125-250 μM) that inhibited strongly in the primary assay.
Hits were examined using the secondary assay as described in PCT Application PCT/US2007/008806, which was filed Apr. 11, 2007, with minor modifications. […] Reactions were run for 20-30 minutes, then spotted on Whatman P81 phosphocellulose discs, washed three times for five minutes in 1% phosphoric acid, and counted by liquid scintillation counting. […]

IC50: 900 nM
Structure (SMILES): CCOC(=O)C(C(C)C)C(N)Cc1ccc(F)cc1 (stereo not shown)
